Compound activity deposited in PubChem BioAssay by Broad Institute.
Only some compounds are listed: those with a hit (about 2.8% of all), similar ones and a draw of the others.
esBAF inh: blocks esBAF chromatin remodeling in mouse ES cells. Bmi1-luciferase knock-in reporter, 24 h; 100% = twice the neutral-well signal. hit rate 2% among 350,000. AID 602393. reporter increase, % at 12.5 µM; in the data active means activation above about 40%; inconclusive means no clear call, values can overlap the other calls;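 further: 0% = median of the plate's neutral control wells and 100% = double that signal; a rise in the Bmi1 reporter signal indicates esBAF inhibition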
PglD DTNB: inhibitors of Campylobacter jejuni PglD acetyltransferase; AID 602405; hit rate 0.098% among 360,000; inhibition, % at 12.5 µM; purified PglD enzyme, DTNB colorimetric CoA detection; in the data active means inhibition above about 16%, passing the limit was not always enough; inconclusive means no clear call, values can overlap the other calls
miR-122 sensor: blocks miR-122 activity in Huh7 sensor cells. Huh7 miR-122 Renilla luciferase sensor, 48 h; neutral wells = 0, positive control = 100. activation (reporter increase), % at 12.5 µM. hit rate 0.3% among 340,000. AID 602342;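 active means mean replicate activation score at least 90 and every replicate individually at or above 90; inconclusive means only one of the two criteria met; inactive means neither criterion met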;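 further: higher luciferase means less miR-122 activity so hits act as miR-122 inhibitors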
MITF act: activators of MITF-driven TRPM1 promoter activity in SK-MEL-5 cells; SK-MEL-5 TRPM1-promoter luciferase, 24 h; % of positive control, neutral wells = 0; activation, % at 12.5 µM; hit rate 0.75% among 300,000; AID 588334;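 active means mean activation of at least 80% with every replicate also reaching 80%; inconclusive means mean reaches 80% but some replicate falls short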;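 further: 0% = neutral control wells and 100% = parthenolide positive control wells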
Wnt act: activates Wnt/beta-catenin signaling in a reporter cell assay | activator, plate reader | hit rate 1.2% among 300,000 | AID 743398 | activation, % at 9.35 µM; in the data active means activation above about 30%, passing the limit was not always enough; inconclusive means no clear call, values can overlap the other calls;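 further: 0% = neutral control wells and 100% = positive control wells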
UUG fidelity: yeast start codon fidelity modulation; AID 602363; activity score, % at 18.7 µM; S. cerevisiae UUG-firefly luciferase reporter, luminescence/redox ratio; 0.13% of 350,000 active;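 active means replicate mean at a twofold rise or more, about +100% in these data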;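 further: firefly luciferase made from a UUG start codon reports start codon fidelity; reporter light over untreated wells divided by growth signal over untreated wells; some hits fall short of that in this replicate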
* = called active by the depositor; u = inconclusive; x = no result given; [ ] = another dose, or the depositor's remark.

SMILES	esBAF inh	PglD DTNB	miR-122 sensor	MITF act	Wnt act	UUG fidelity
O=C(NCc1ccccn1)c1cc(-c2ccc(-c3ccccc3)cc2)nc2ccccc12	45*	x	-8	23	-8	x
CO[C@@H]1CC[C@@H]2CCOc3ccc(C#N)cc3C(=O)N(C)C[C@H](C)C(=O)N(C)C[C@@H]1O2	1	1	x	x	x	x
C/C(=N/OC(=O)CC(C)C)c1cc(-c2ccc(Cl)cc2)no1	x	x	1	86*	7	x
C#CCN1C(=O)S/C(=C\c2ccc(-c3ccc(C(=O)O)cc3C)o2)C1=O	86*	4	-1	47	16	-12
CO[C@@H](CN(C)Cc1nccs1)[C@H](C)CN([C@@H](C)CO)S(=O)(=O)c1ccc(C)cc1	2	-3	x	x	x	x
Cc1cccc2c1OCC/C2=N\NC(=O)COc1ccccc1Cl	70*	-2	-4	95*	x	7
CN(C)S(=O)(=O)n1cc(/C=C(\NC(=O)c2ccccc2Cl)C(=O)NCCCn2ccnc2)c2ccccc21	0	x	125*	14	1	x
CN(C)S(=O)(=O)n1cc(/C=C(\NC(=O)c2ccccc2)C(=O)NCCCn2ccnc2)c2ccccc21	6	3	30	13	0	-8
O=C(CCNC(=O)c1ccco1)Nc1cccc(C(F)(F)F)c1	-8	-2	-4	8	1	3
CN(CC(=O)Nc1cccc(F)c1)C(=O)CCNC(=O)c1ccco1	x	x	x	0	49*	x
CN(CC(=O)Nc1cccc(F)c1)C(=O)CCCNC(=O)c1ccc(Cl)cc1	54*	-1	-2	57	20	-28
CN(CC(=O)Nc1cccc(F)c1)C(=O)CCNC(=O)c1ccc(Br)cc1	23	-1	3	13	5	4
C[C@H](CO)N1C[C@H](C)[C@H](CN(C)C(=O)C2CC2)Oc2cc(-c3ccc(C(=O)N(C)C)cc3)ccc2S1(=O)=O	x	x	-11[16.7 µM]	x	x	x
CCOc1cc(N2CCOCC2)c(OCC)cc1NS(=O)(=O)c1ccc(Cl)s1	-5	-2	113*	-25	-5	-4
S=c1nc(COc2ccccc2)[nH]c2ccccc12	68*	-3	-3	27	27	-21
COc1ccc(S(=O)(=O)Nc2ccc3c(c2)C(=O)N([C@@H](C)CO)C[C@H](C)[C@@H](CN(C)S(=O)(=O)c2ccc(OC)cc2)OCCCC[C@H](C)O3)cc1	3	2	-5[16.7 µM]	x	x	-13
O=C(c1ccccc1)c1cccc(C(=O)c2ccccc2)c1	10	-4	-1	18	x	8
O=C(c1ccccc1)c1ccc2cc(O)ccc2c1	55*	x	x	47	20	x
COc1cc(C=NN=c2sc3ccccc3n2C)ccc1OCCO	x	x	x	x	34*	x
NS(=O)(=O)c1ccc(CNC(=O)c2ccc3ccccc3n2)cc1	-1	-2	-1	4	1	-15
NS(=O)(=O)c1ccc(CNc2ccc3ccccc3n2)cc1	52*	2	1	x	8	-11
C[C@@H]1CCCCO[C@@H](CN(C)Cc2ccc(C(F)(F)F)cc2)[C@H](C)CN([C@H](C)CO)C(=O)c2cc(NC(=O)Nc3ccccc3)ccc2O1	5	-1	-19[16.7 µM]	x	x	7
O=C(CC1CCCCC1)NCc1ccccc1Cl	53*	3	-1	41	8	-10
O=C(CC1CCCCC1)NCc1ccccn1	-9	0	0	x	0	-22
COc1cccc(C(=O)NCc2ccc(-c3nc4ccccc4s3)cc2)c1	52*	x	2	45	-1	x
COc1ccc(C(=O)NCc2ccc(-c3nc4ccccc4s3)cc2)cc1	69*	-2	2	74	x	-19
COc1cc(C(=O)NCc2ccc(-c3nc4ccccc4s3)cc2)cc(OC)c1OC	x	x	x	48	-2	x
CS(=O)(=O)Nc1ccc2c(c1)[C@@H]1C[C@@H](CC(=O)NCc3ccncc3)O[C@@H](CO)[C@@H]1O2	1	2	0[16.7 µM]	x	x	-14
Cn1cc(CNCc2cn[nH]c2-c2ccc(F)cc2)c(-c2ccc3c(c2)OCCO3)n1	x	x	x	-1	37*	x
O=[N+]([O-])c1ncccc1OCc1ccc(Cl)c(Cl)c1	67*	0	-9	67	18	-4
CCCc1cn(CC[C@H]2CC[C@@H](NC(=O)Nc3ccccc3F)[C@@H](CO)O2)nn1	3	-3	-5[16.7 µM]	x	x	-1
O=C(Nc1ccc2oc(-c3ccccc3)nc2c1)C1CCCO1 (stereo unspecified)	x	x	x	88*	24	x
S=C(NCC1CCCCC1)Nc1ccc(Oc2ccccc2)cc1	3	x	117*	-4	-4	x
O=C(Nc1ccc(Oc2ccccc2)cc1)C1CCCO1 (stereo unspecified)	52*	x	-2	80	x	x
COc1ccc(NC(=O)C2CCCO2)cc1 (stereo unspecified)	2	6	-5	x	1	-19
C[C@@H]1CN([C@@H](C)CO)C(=O)Cc2cc(NS(=O)(=O)c3ccccc3)ccc2O[C@@H]1CN(C)S(=O)(=O)c1cn(C)cn1	2	0	-1[16.7 µM]	x	x	4
Cc1ccc(-n2nc3c(n2)/C(=N/O)CC/C3=N\O)cc1	21	3	-4	25	43*	-26
CN(C)C(=O)C[C@@H]1CC[C@H]2[C@H](COc3ccc(NC(=O)C4CCOCC4)cc3C(=O)N2C)O1	-1	0	-3[16.7 µM]	x	x	12
COc1ccc(-c2ccc(C(=O)NCc3cccs3)c3occc23)c(C)c1	72*	4	70	x	1	-1
C[C@@H]1CCCCO[C@H](CN(C)Cc2ccc3c(c2)OCO3)[C@@H](C)CN([C@H](C)CO)C(=O)c2cc(NS(=O)(=O)c3ccccc3)ccc2O1	-1	7	3[16.7 µM]	x	x	3
COCCN(C(=O)CCc1ccc(OC)cc1)c1nnc(-c2ccncc2)s1	x	x	x	-6	-1	x
CCCC(=O)N(C)c1nnc(-c2ccc(OC)cc2)s1	36	3	-4	57	34*	-25
O=[N+]([O-])c1ccc(C(O)CSC(=S)N2CCCCC2)cc1 (stereo unspecified)	45*	-1	5	46	19	4
O=[N+]([O-])c1ccc(C(O)CN2CCOCC2)cc1 (stereo unspecified)	-6	1	-4	-6	-3	-18
O=[N+]([O-])c1ccc(C(=S)N2CCCC2)cc1	4	-2	4	-6	37*	-11
CCOC(=O)c1cc(C(=O)Nc2ccc(C)c(F)c2)nn1C	42*	-2	-4	u	x	-11
CCOC(=O)c1cc(C(=O)NCc2ccc(Cl)cc2Cl)nn1C	x	x	x	-1	1	x
Cc1ccccc1S(=O)(=O)N1CC[C@@H]2[C@H]1c1cc(C#Cc3ccccc3)ccc1N[C@@H]2CO	-3	0	-3[16.7 µM]	x	x	0
CS(=O)(=O)Nc1ccc2c(c1)[C@H]1C[C@@H](CC(=O)NCCN3CCCCC3)O[C@@H](CO)[C@H]1O2	-2	1	-4[16.7 µM]	x	x	-16
C=CCSc1nncn1/N=C/c1ccc(OC)cc1	x	x	x	92*	27	x

Two compounds picked at random from the list so far, as already listed:
SMILES	esBAF inh	PglD DTNB	miR-122 sensor	MITF act	Wnt act	UUG fidelity
O=[N+]([O-])c1ccc(C(=S)N2CCCC2)cc1	4	-2	4	-6	37*	-11
CCOC(=O)c1cc(C(=O)NCc2ccc(Cl)cc2Cl)nn1C	x	x	x	-1	1	x

Entries of single compounds, looked up by structure. Order of values: esBAF inh, PglD DTNB, miR-122 sensor, MITF act, Wnt act, UUG fidelity
Record of C=CCSc1nncn1/N=C/c1ccc(OC)cc1 → x, x, x, 92*, 27, x
Record of Cc1ccccc1S(=O)(=O)N1CC[C@@H]2[C@H]1c1cc(C#Cc3ccccc3)ccc1N[C@@H]2CO → -3, 0, -3[16.7 µM], x, x, 0
Record of CCOC(=O)c1cc(C(=O)NCc2ccc(Cl)cc2Cl)nn1C → x, x, x, -1, 1, x
